Experimental findings from patent publication US8212058B2, “Fluorescent photoprobe for the imaging of endothelin receptors” (Universitatskilinikum Munster, priority 2005, dated 2012) are described below.

The target in this experiment is endothelin receptors. As to the kind of experiment: Competition binding studies with [125I]ET-1 on mouse ventricular membrane preparations. Conditions: 40 pM [125I]ET-1, 10 μg mouse ventricular membranes, 37° C., 4 h.

pIC50: −log10 of the molar value. “And” between values parts separate entries of the source, which are not always exact repeats. Equal entries are not always repeated.

In the case of `COc1ccc(C2(O)OC(=O)C(c3ccc4c(c3)OCO4)=C2Cc2cc(OC)c(OC)c(OCCOCCOCCN3C(=O)c4ccccc4C3=O)c2)cc1` (centres unmarked) [Compound 4, 3-Benzo[1,3]dioxol-5-yl-4-(4,5-dimethoxy-3-{2-[2-(2-phthalimidoylethoxy)ethoxy]ethoxy}-benzyl)-5-hydroxy-5-(4-methoxyphenyl)-5H-furan-2-one], the negative-log IC50 (pIC50) is 8.08 and 8.05. In the case of `COc1ccc(C2(O)OC(=O)C(c3ccc4c(c3)OCO4)=C2Cc2cc(OC)c(OC)c(OC)c2)cc1` (centres unmarked) [PD 156707, 3-benzo[1,3]dioxol-5-yl-5-hydroxy-5-(4-methoxyphenyl)-4-(3,4,5-trimethoxybenzyl)-5H-furan-2-one, reference compound] it was 8.66 and 8.70.

One may read the pIC50 as −log10 of the IC50, conventionally taken in molar units.
